Data as given in PubChem BioAssay AID588492 (Sanford-Burnham Center for Chemical Genomics, 2011).
The list shows a part of the results, in another mix than the full data. Activity calls are given as the source filed them.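 How the source made its calls: active means compounds giving at least 50% protection of heart cells from peroxide-induced death in the single-dose screen, raw or plate-pattern-corrected value; inactive means the rest.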

Test: cardioprotection against H2O2-induced cell death, primary screen, uHTS, H9c2 cells, ATPLite luminescence (AID 588492);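 further: 0% = DMSO wells with peroxide and 100% = DMSO wells without peroxide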
Conditions: H9c2 cardiomyocytes, H2O2 injury protection, 2 h, at 20 µM, active compounds read high

**Q.** Which protection from H2O2 cell death does the source give for O=C(NCC1(N2CCCCC2)CCCCC1)c1ccc(Cl)nc1 here?
**A.** The protection from H2O2 cell death was inactive: 3.1%.

**Q.** Which protection from H2O2 cell death does the source give for CCCCn1nnnc1C(c1ccc(OC)cc1)N1CCC(n2c(=O)[nH]c3ccccc32)CC1 (stereo not given) here?
**A.** The protection from H2O2 cell death was inactive: 6.4%.

**Q.** For CCOC(=O)N1CCC(Nc2ccc(OC)cc2)CC1, which protection from H2O2 cell death is on record?
**A.** The protection from H2O2 cell death was inactive: 4.2%.

**Q.** For COc1ccc(Cl)cc1C(=O)NCC1(N2CCOCC2)CCCCC1, which protection from H2O2 cell death is on record?
**A.** Its protection from H2O2 cell death is inactive: -3.5%.

**Q.** With O=c1[nH]c2ccccc2n1C1CCN(C(c2cc3ccccc3o2)c2nnnn2C2CCCCC2)CC1 (stereo not given) as the compound, how does the protection from H2O2 cell death read?
**A.** Its protection from H2O2 cell death is inactive: -9%.

**Q.** With O=C(OC1CN2CCC1CC2)C1c2ccccc2Oc2ccccc21 (stereo not given) as the compound, how does the protection from H2O2 cell death read?
**A.** Its protection from H2O2 cell death is inactive: -5.5%.

**Q.** Which protection from H2O2 cell death does the source give for O=C(NCC1(N2CCCCC2)CCCCC1)c1ccc(Cl)s1 here?
**A.** The protection from H2O2 cell death was inactive: 2.2%.

**Q.** With N#CC1(Nc2ccccc2)CCN(Cc2ccccc2)CC1 as the compound, how does the protection from H2O2 cell death read?
**A.** The protection from H2O2 cell death was inactive: 0.1%.

**Q.** Which protection from H2O2 cell death does the source give for CCCCn1nnnc1C(c1cccs1)N1CCC(n2c(=O)[nH]c3ccccc32)CC1 (stereo not given) here?
**A.** The protection from H2O2 cell death was inactive: 23.4%.

**Q.** Which protection from H2O2 cell death does the source give for CCCCn1nnnc1C(CC)N1CCC(n2c(=O)[nH]c3ccccc32)CC1 (stereo not given) here?
**A.** Its protection from H2O2 cell death is inactive: 7.2%.

**Q.** For O=C(NCC1(N2CCCCC2)CCCCC1)c1cccs1, which protection from H2O2 cell death is on record?
**A.** Its protection from H2O2 cell death is inactive: 1.2%.

**Q.** Which protection from H2O2 cell death does the source give for O=C(NCC1(N2CCCCC2)CCCCC1)c1ccc(=O)[nH]c1 here?
**A.** Its protection from H2O2 cell death is inactive: 11.3%.

**Q.** With CCC(c1nnnn1C1CCCC1)N1CCC(n2c(=O)[nH]c3ccccc32)CC1 (stereo not given) as the compound, how does the protection from H2O2 cell death read?
**A.** Its protection from H2O2 cell death is inactive: 1.9%.

**Q.** For COc1ccc(C(=O)NCC2(N3CCCCC3)CCCCC2)c(OC)c1OC, which protection from H2O2 cell death is on record?
**A.** The protection from H2O2 cell death was inactive: -2.9%.

**Q.** Which protection from H2O2 cell death does the source give for CC(C)(C)OC(=O)N1CCC(N(C(=O)c2ccccc2)c2ccc(F)cc2)CC1 here?
**A.** Its protection from H2O2 cell death is inactive: 6.8%.

**Q.** For COc1ccc(C(=O)NCC2(N3CCCCC3)CCCCC2)cc1, which protection from H2O2 cell death is on record?
**A.** The protection from H2O2 cell death was inactive: -2.5%.

**Q.** Which protection from H2O2 cell death does the source give for Cc1cccc(NC2(C#N)CCN(Cc3ccccc3)CC2)c1 here?
**A.** The protection from H2O2 cell death was inactive: 1.5%.

**Q.** With CSc1ccccc1C(=O)NCC1(N2CCCCC2)CCCCC1 as the compound, how does the protection from H2O2 cell death read?
**A.** Its protection from H2O2 cell death is inactive: -0.4%.

**Q.** Which protection from H2O2 cell death does the source give for O=C(NCC1(N2CCCCC2)CCCCC1)c1cncc(Br)c1 here?
**A.** The protection from H2O2 cell death was inactive: -0.9%.

**Q.** Which protection from H2O2 cell death does the source give for CN1CCC(Nc2cccc(F)c2)CC1 here?
**A.** Its protection from H2O2 cell death is inactive: 10.1%.

**Q.** For CCCOc1ccc(C(=O)NCC2(N(C)C)CCCCC2)cc1OC, which protection from H2O2 cell death is on record?
**A.** Its protection from H2O2 cell death is inactive: -0.1%.

**Q.** Which protection from H2O2 cell death does the source give for Cc1ccc(C(=O)NCC2(N(C)C)CCCCC2)o1 here?
**A.** The protection from H2O2 cell death was inactive: -2.3%.

**Q.** Which protection from H2O2 cell death does the source give for COc1ccc(C(c2nnnn2C2CCCC2)N2CCC(n3c(=O)[nH]c4ccccc43)CC2)cc1 (stereo not given) here?
**A.** Its protection from H2O2 cell death is inactive: 4.7%.

**Q.** Which protection from H2O2 cell death does the source give for CN(C)c1cccc(C(=O)NCC2(N3CCCCC3)CCCCC2)c1 here?
**A.** Its protection from H2O2 cell death is inactive: -5.7%.

**Q.** With COc1ccc(CN(CCCl)CCCl)cc1Cl as the compound, how does the protection from H2O2 cell death read?
**A.** Its protection from H2O2 cell death is inactive: -1.1%.

**Q.** For CCCCn1nnnc1C(c1ccccc1OC(F)(F)F)N1CCC(n2c(=O)[nH]c3ccccc32)CC1 (stereo not given), which protection from H2O2 cell death is on record?
**A.** The protection from H2O2 cell death was inactive: -2.5%.

**Q.** Which protection from H2O2 cell death does the source give for CC(C)c1ccc(NC2CCN(C(=O)OC(C)(C)C)CC2)cc1 here?
**A.** The protection from H2O2 cell death was inactive: -15.2%.

**Q.** With CCCCn1nnnc1C(c1ccnc2ccccc12)N1CCC(n2c(=O)[nH]c3ccccc32)CC1 (stereo not given) as the compound, how does the protection from H2O2 cell death read?
**A.** Its protection from H2O2 cell death is inactive: 10.8%.

**Q.** Which protection from H2O2 cell death does the source give for CCC(c1nnnn1C(C)(C)C)N1CCC(n2c(=O)[nH]c3ccccc32)CC1 (stereo not given) here?
**A.** The protection from H2O2 cell death was inactive: 9.1%.

**Q.** Which protection from H2O2 cell death does the source give for O=C(NCC1(N2CCOCC2)CCCCC1)c1cc(F)c(F)cc1Cl here?
**A.** Its protection from H2O2 cell death is inactive: 0.6%.

**Q.** For COc1cc(OC)c(C(=O)NCC2(N(C)C)CCCCC2)cc1OC, which protection from H2O2 cell death is on record?
**A.** Its protection from H2O2 cell death is inactive: -1.3%.

**Q.** Which protection from H2O2 cell death does the source give for O=C(NCC1(N2CCCCC2)CCCCC1)c1cccc(C(F)(F)F)c1 here?
**A.** Its protection from H2O2 cell death is inactive: 3.5%.

**Q.** With CCCCn1nnnc1C(c1cccc2ccccc12)N1CCC(n2c(=O)[nH]c3ccccc32)CC1 (stereo not given) as the compound, how does the protection from H2O2 cell death read?
**A.** The protection from H2O2 cell death was inactive: -4%.

**Q.** For COc1ccc(NC2CCN(C(=O)OC(C)(C)C)CC2)cc1, which protection from H2O2 cell death is on record?
**A.** The protection from H2O2 cell death was inactive: 3%.

**Q.** With CC(C)c1ccc(C(=O)NCC2(N3CCOCC3)CCCCC2)cc1 as the compound, how does the protection from H2O2 cell death read?
**A.** The protection from H2O2 cell death was inactive: 1.7%.

**Q.** Which protection from H2O2 cell death does the source give for CN1CCN(CCOC(=O)C(O)(c2ccccc2)c2ccccc2)CC1 here?
**A.** Its protection from H2O2 cell death is inactive: 3.1%.

**Q.** For O=C(NCC1(N2CCOCC2)CCCCC1)c1cc(=O)[nH]c2ccccc12, which protection from H2O2 cell death is on record?
**A.** The protection from H2O2 cell death was inactive: -2.5%.

**Q.** With COc1cc(C(=O)NCC2(N3CCCCC3)CCCCC2)ccc1OC(F)F as the compound, how does the protection from H2O2 cell death read?
**A.** Its protection from H2O2 cell death is inactive: 0.5%.

**Q.** Which protection from H2O2 cell death does the source give for O=C(NCC1(N2CCCCC2)CCCCC1)c1ccc(OC(F)F)cc1 here?
**A.** Its protection from H2O2 cell death is inactive: -1.2%.

**Q.** For CC(C)(C)n1nnnc1C(c1ccccc1OC(F)(F)F)N1CCC(n2c(=O)[nH]c3ccccc32)CC1 (stereo not given), which protection from H2O2 cell death is on record?
**A.** The protection from H2O2 cell death was inactive: -6.1%.

**Q.** With O=C(NCC1(N2CCCCC2)CCCCC1)c1cccc([N+](=O)[O-])c1 as the compound, how does the protection from H2O2 cell death read?
**A.** Its protection from H2O2 cell death is inactive: 11.1%.

**Q.** Which protection from H2O2 cell death does the source give for CSc1ccc(C(=O)NCC2(N3CCOCC3)CCCCC2)cc1 here?
**A.** The protection from H2O2 cell death was inactive: 16.1%.

**Q.** With N#CC1(Nc2ccccc2)CCN(CCc2ccccc2)CC1 as the compound, how does the protection from H2O2 cell death read?
**A.** Its protection from H2O2 cell death is inactive: -2.1%.

**Q.** For O=c1[nH]c2ccccc2n1C1CCN(C(c2ccccc2OC(F)(F)F)c2nnnn2C2CCCC2)CC1 (stereo not given), which protection from H2O2 cell death is on record?
**A.** The protection from H2O2 cell death was inactive: -1.7%.

**Q.** Which protection from H2O2 cell death does the source give for CCN1CCC(Nc2ccc(Cl)cc2)CC1 here?
**A.** Its protection from H2O2 cell death is inactive: -3.1%.
